This note sets out measurements from patent US10442871B2, “Modified cyclodextrins for the selective sequestration of fentanyl related compounds and uses thereof” (dated 2019).

Experiment [1] is described as follows: 1H NMR titration, CD:acetylthiofentanyl binding affinity. Particulars: NMR-derived binding affinity; HCl salt.
Experiment [2] is described as follows: 1H NMR titration, CD:acetylfentanyl binding affinity. Particulars: NMR-derived binding affinity; HCl salt.
A short description of experiment [3]: 1H NMR titration, CD:fentanyl binding affinity. Particulars: NMR-derived binding affinity; HCl salt; D2O; error in parentheses from NLLS regression.
Experiment [4] is described as follows: 1H NMR titration, CD:thiofentanyl binding affinity. As to conditions: NMR-derived binding affinity; HCl salt.

As for 6-deoxy-6-amino-β-CD, the “K, acetylchiofentanyl HCl” value in experiment [1] is listed as 108 (28) M^−1. Moreover, the “K, acetylfentanyl HCl” value in experiment [2] was 66 (8) M^−1. The “K, fentanyl HCl” value in experiment [3] is given as 174 (16) M^−1. Further, the “K, thiofentanyl HCl” value in experiment [4] was 177 (33) M^−1.
